The source of these data is article PMC4900891 (Biochemistry, 2016).

Where “and” joins values, the source holds several entries; their conditions need not be identical. Identical values can stand only once. Square brackets hold non-standard residues; d marks the D form. Peptide text beside a SMILES is read from it. pY = N[C@@H](Cc1ccc(OP(=O)(O)O)cc1)C(=O)O

Assay [1] has as its target T1, SHP2^F285S (Homo sapiens, UniProt Q06124, F285S). The assay can be described thus: Basal DiFMUP dephosphorylation kinetics, F285S. It counts as biochemical. As to conditions: substrate DiFMUP, basal (no peptide); 0.5 nM enzyme, Hepes pH 7.2.
Assay [2] addresses T1, SHP2^F285S. The assay is described as follows: Phosphopeptide activation of SHP2. Format: biochemical.

`Cc1cc(=O)oc2c(F)c(OP(=O)(O)O)c(F)cc12` [DiFMUP, 6,8-Difluoro-4-Methylumbelliferyl Phosphate]: the kcat/KM (as a rule, the turnover number divided by the Michaelis constant) in assay [1] is 14000 M⁻¹ s⁻¹ and 14300 M⁻¹ s⁻¹.
As to `CC[C@H](C)[C@H](NC(=O)[C@H](Cc1ccc(OP(=O)(O)O)cc1)NC(=O)[C@H](CC(N)=O)NC(=O)[C@H](CC(C)C)NC(=O)[C@@H](N)CO)C(=O)N[C@@H](CC(=O)O)C(=O)N[C@@H](CC(C)C)C(=O)N[C@@H](CC(=O)O)C(=O)N[C@@H](CC(C)C)C(=O)N[C@H](C(=O)N[C@@H](CCCCN)C(=O)O)C(C)C` [PY1172] (H-SLN[pY]IDLDLVK-OH), it took 2 µM to reach a half-maximal effect in assay [2] (EC50).
Turning to “SLNY(p)IDLDLVK-dPEG8-LSTY(p)ASINFQK [PY1172-PEG-PY1222]”, in assay [2] (relative to SHP2^WT), the “sensitivity to bisphosphorylated peptide” value is “intermediate”.
